Data taken from PubChem BioAssay (NCI).
Values joined by “and” are separate entries in the source; they are usually repeats but may differ in a detail not shown here. Equal entries are not always repeated. Only a part is listed here, and it is no random draw.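 Single-dose data. Exposure time 48 hours. Values below 10 considered active.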 Active and inactive are the calls of the source.

Columns and labels:
Experiment in all cases: NCI-60 one-dose screen, 48 h (100 = growth as untreated, 0 = no growth, -100 = all killed)
Details in all cases: 10 µM
SK-MEL-2 melanoma = test system: SK-MEL-2 melanoma
EKVX NSCLC = test system: EKVX NSCLC
SN12C renal = test system: SN12C renal
UO-31 renal = test system: UO-31 renal
TK-10 renal = test system: TK-10 renal
ACHN renal = test system: ACHN renal
CAKI-1 renal = test system: CAKI-1 renal
A498 renal = test system: A498 renal
HL-60(TB) leukemia = test system: HL-60(TB) leukemia
CCRF-CEM leukemia = test system: CCRF-CEM leukemia
MOLT-4 leukemia = test system: MOLT-4 leukemia
SR leukemia = test system: SR leukemia
RPMI-8226 leukemia = test system: RPMI-8226 leukemia
OVCAR-8 ovarian = test system: OVCAR-8 ovarian
OVCAR-5 ovarian = test system: OVCAR-5 ovarian
OVCAR-4 ovarian = test system: OVCAR-4 ovarian
SK-OV-3 ovarian = test system: SK-OV-3 ovarian
IGROV1 ovarian = test system: IGROV1 ovarian
OVCAR-3 ovarian = test system: OVCAR-3 ovarian
HS 578T breast = test system: HS 578T breast

Measured: growth

Cn1c(=O)[nH]cc(N(CCCl)CCCl)c1=O
inactive: SK-MEL-2 melanoma 92.4% | EKVX NSCLC 105% | SN12C renal 76.6% | UO-31 renal 90.3% | TK-10 renal 92.7% | ACHN renal 51.9% | CAKI-1 renal 56.1% | A498 renal 105% | HL-60(TB) leukemia 47.8% | CCRF-CEM leukemia 45.4% | MOLT-4 leukemia 57.4% | SR leukemia 30.2% | RPMI-8226 leukemia 87.1% | OVCAR-8 ovarian 86.7% | OVCAR-5 ovarian 106% | OVCAR-4 ovarian 104% | SK-OV-3 ovarian 122% | IGROV1 ovarian 85.9% | OVCAR-3 ovarian 105% | HS 578T breast 96.2%

ClCCN(CCCl)CCc1ccccc1
inactive: SK-MEL-2 melanoma 102% | EKVX NSCLC 122% | SN12C renal 86.8% | UO-31 renal 86.1% | TK-10 renal 96.7% | ACHN renal 93.2% | CAKI-1 renal 100% | A498 renal 106% | HL-60(TB) leukemia 88% | CCRF-CEM leukemia 81.3% | MOLT-4 leukemia 73.3% | SR leukemia 84.7% | RPMI-8226 leukemia 91.3% | OVCAR-8 ovarian 91.1% | OVCAR-5 ovarian 97.3% | OVCAR-4 ovarian 113% | SK-OV-3 ovarian 104% | IGROV1 ovarian 104% | OVCAR-3 ovarian 110% | HS 578T breast 116%

CCOC(=O)c1ccc(N(CCCl)CCCl)cc1
inactive: SK-MEL-2 melanoma 104% | SN12C renal 103% | UO-31 renal 86% | TK-10 renal 111% | ACHN renal 105% | CAKI-1 renal 95.4% | A498 renal 90.6% | HL-60(TB) leukemia 84.3% | CCRF-CEM leukemia 96.1% | MOLT-4 leukemia 82.5% | SR leukemia 86.1% | RPMI-8226 leukemia 90.4% | OVCAR-8 ovarian 96.8% | OVCAR-5 ovarian 102% | OVCAR-4 ovarian 93.9% | SK-OV-3 ovarian 107% | IGROV1 ovarian 107% | OVCAR-3 ovarian 118% | HS 578T breast 114%

Cc1ccc(S(=O)(=O)CN(CCBr)CCBr)cc1
inactive: SK-MEL-2 melanoma 106% | SN12C renal 93.7% | UO-31 renal 91.9% | TK-10 renal 112% | ACHN renal 98.3% | CAKI-1 renal 89.4% | A498 renal 112% | HL-60(TB) leukemia 110% | CCRF-CEM leukemia 110% | MOLT-4 leukemia 97.5% | SR leukemia 123% | RPMI-8226 leukemia 106% | OVCAR-8 ovarian 91.8% | OVCAR-5 ovarian 112% | OVCAR-4 ovarian 102% | SK-OV-3 ovarian 105% | IGROV1 ovarian 103% | OVCAR-3 ovarian 120% | HS 578T breast 107%

OCC#CCN(CCCl)CCCl
inactive: SK-MEL-2 melanoma 104% | SN12C renal 96% | UO-31 renal 81.1% | TK-10 renal 102% | ACHN renal 95.8% | CAKI-1 renal 72% | A498 renal 95% | HL-60(TB) leukemia 88% | CCRF-CEM leukemia 60.9% | MOLT-4 leukemia 76.6% | SR leukemia 32.5% | RPMI-8226 leukemia 94.4% | OVCAR-8 ovarian 89.3% | OVCAR-5 ovarian 107% | OVCAR-4 ovarian 109% | SK-OV-3 ovarian 99.6% | IGROV1 ovarian 72.3% | OVCAR-3 ovarian 110% | HS 578T breast 123%

COc1c(C)cc(N(CCCl)CCCl)c2ccccc12
active: CAKI-1 renal -0.134% | HL-60(TB) leukemia 7.16% | MOLT-4 leukemia 4.93% | SR leukemia -3.64%
inactive: SK-MEL-2 melanoma 118% | SN12C renal 34.6% | UO-31 renal 43.5% | TK-10 renal 96.6% | ACHN renal 15.2% | A498 renal 70.9% | CCRF-CEM leukemia 11.7% | RPMI-8226 leukemia 70.1% | OVCAR-8 ovarian 46.3% | OVCAR-5 ovarian 78.6% | OVCAR-4 ovarian 77.3% | SK-OV-3 ovarian 68.4% | IGROV1 ovarian 50% | OVCAR-3 ovarian 96.4% | HS 578T breast 116%

Oc1ccc(Br)cc1CN(CCCl)CCCl
inactive: SK-MEL-2 melanoma 104% | EKVX NSCLC 93.1% | SN12C renal 40.7% | UO-31 renal 54.1% | TK-10 renal 96.2% | A498 renal 95.9% | HL-60(TB) leukemia 11.8% | CCRF-CEM leukemia 28.2% | MOLT-4 leukemia 27% | SR leukemia 16.7% | RPMI-8226 leukemia 75.8% | OVCAR-8 ovarian 77.6% | OVCAR-5 ovarian 95.2% | OVCAR-4 ovarian 84.3% | SK-OV-3 ovarian 74.6% | IGROV1 ovarian 74.3% | OVCAR-3 ovarian 76.5% | HS 578T breast 106%

ClCCN1CCN(CCCl)CC1
inactive: SK-MEL-2 melanoma 117% | SN12C renal 98.6% and 98.2% | UO-31 renal 87.3% and 80.9% | TK-10 renal 119% and 101% | ACHN renal 103% and 91.4% | CAKI-1 renal 94.6% and 103% | A498 renal 101% and 107% | HL-60(TB) leukemia 103% and 85.3% | CCRF-CEM leukemia 89.3% | MOLT-4 leukemia 101% and 88% | SR leukemia 89.2% and 73.5% | RPMI-8226 leukemia 95.3% and 96.6% | OVCAR-8 ovarian 102% and 91.8% | OVCAR-5 ovarian 110% and 103% | OVCAR-4 ovarian 101% and 111% | SK-OV-3 ovarian 99.9% and 102% | IGROV1 ovarian 100% and 89.5% | OVCAR-3 ovarian 112% and 99.8% | HS 578T breast 108% and 99.8%

CCNC(=O)Cc1ccc(N(CCCl)CCCl)cc1
active: CAKI-1 renal 4.06%
inactive: SK-MEL-2 melanoma 122% | SN12C renal 53% | UO-31 renal 68.8% | TK-10 renal 105% | ACHN renal 29.6% | A498 renal 112% | HL-60(TB) leukemia 30.7% | CCRF-CEM leukemia 35.5% | MOLT-4 leukemia 47.2% | SR leukemia 19.5% | RPMI-8226 leukemia 86.2% | OVCAR-8 ovarian 82% | OVCAR-5 ovarian 103% | OVCAR-4 ovarian 98.3% | SK-OV-3 ovarian 97.4% | IGROV1 ovarian 67.8% | OVCAR-3 ovarian 103%

CCCCOc1ccc(N(CCCl)CCCl)cc1
inactive: SK-MEL-2 melanoma 89.8% | EKVX NSCLC 109% | SN12C renal 104% | UO-31 renal 91% | TK-10 renal 96.4% | ACHN renal 114% | HL-60(TB) leukemia 99.8% | CCRF-CEM leukemia 98% | MOLT-4 leukemia 103% | SR leukemia 84.7% | RPMI-8226 leukemia 97% | OVCAR-8 ovarian 102% | OVCAR-5 ovarian 110% | OVCAR-4 ovarian 111% | SK-OV-3 ovarian 109% | IGROV1 ovarian 102% | OVCAR-3 ovarian 99.3% | HS 578T breast 111%

Oc1ccc(O)c(CN(CCCl)CCCl)c1
inactive: SK-MEL-2 melanoma 115% | SN12C renal 97.1% | UO-31 renal 78.4% | TK-10 renal 104% | ACHN renal 93.5% | CAKI-1 renal 77.2% | A498 renal 123% | HL-60(TB) leukemia 79.7% | MOLT-4 leukemia 73.7% | SR leukemia 63.2% | RPMI-8226 leukemia 104% | OVCAR-8 ovarian 97.3% | OVCAR-5 ovarian 108% | OVCAR-4 ovarian 116% | SK-OV-3 ovarian 96.7% | IGROV1 ovarian 67.1% | OVCAR-3 ovarian 96.4% | HS 578T breast 106%

Cc1ccccc1CN(CCCl)CCCl
inactive: SK-MEL-2 melanoma 106% | EKVX NSCLC 103% | SN12C renal 103% | UO-31 renal 85.5% | TK-10 renal 110% | ACHN renal 98.3% | CCRF-CEM leukemia 94.7% | RPMI-8226 leukemia 100% | OVCAR-8 ovarian 93.9% | OVCAR-5 ovarian 105% | OVCAR-4 ovarian 98.6% | SK-OV-3 ovarian 97.7% | IGROV1 ovarian 79.7% | OVCAR-3 ovarian 94.1%

O=C(O)CCCCc1ccc(N(CCCl)CCCl)cc1
inactive: SK-MEL-2 melanoma 118% | SN12C renal 81.7% | UO-31 renal 77% | TK-10 renal 100% | ACHN renal 65.7% | CAKI-1 renal 51.9% | A498 renal 103% | HL-60(TB) leukemia 63.3% | CCRF-CEM leukemia 46.7% | MOLT-4 leukemia 59.8% | SR leukemia 26.4% | RPMI-8226 leukemia 88.7% | OVCAR-8 ovarian 77.2% | OVCAR-5 ovarian 99.1% | OVCAR-4 ovarian 95.5% | SK-OV-3 ovarian 103% | IGROV1 ovarian 81.6% | OVCAR-3 ovarian 96% | HS 578T breast 96.9%

CC1(C)NC(=O)N(CCN(CCCl)CCCl)C1=O
inactive: SK-MEL-2 melanoma 101% | SN12C renal 110% | UO-31 renal 86.9% | ACHN renal 96.4% | CAKI-1 renal 110% | A498 renal 112% | HL-60(TB) leukemia 103% | MOLT-4 leukemia 102% | OVCAR-8 ovarian 100% | OVCAR-5 ovarian 102% | OVCAR-4 ovarian 100% | SK-OV-3 ovarian 102% | IGROV1 ovarian 97.6% | OVCAR-3 ovarian 112% | HS 578T breast 125%

CCOC(=O)N1CCC(=O)CC1
inactive: SK-MEL-2 melanoma 96.8% | SN12C renal 96.4% | UO-31 renal 87.3% | TK-10 renal 105% | ACHN renal 101% | CAKI-1 renal 98.6% | A498 renal 95.4% | HL-60(TB) leukemia 98.8% | CCRF-CEM leukemia 97.4% | MOLT-4 leukemia 102% | SR leukemia 96.5% | RPMI-8226 leukemia 103% | OVCAR-8 ovarian 95.9% | OVCAR-5 ovarian 99.8% | OVCAR-4 ovarian 95.4% | SK-OV-3 ovarian 94.6% | IGROV1 ovarian 98.9% | OVCAR-3 ovarian 106% | HS 578T breast 95.9%

CCOc1ccc(N(CCCl)CCCl)cc1
active: CAKI-1 renal -4.3% | SR leukemia 6.68%
inactive: SN12C renal 36.8% | UO-31 renal 52.2% | TK-10 renal 92.5% | A498 renal 72.1% | HL-60(TB) leukemia 25% | CCRF-CEM leukemia 20.4% | MOLT-4 leukemia 28.5% | RPMI-8226 leukemia 76% | OVCAR-8 ovarian 59.8% | OVCAR-5 ovarian 94.9% | OVCAR-4 ovarian 92.4% | SK-OV-3 ovarian 77% | IGROV1 ovarian 74.3% | OVCAR-3 ovarian 91.1% | HS 578T breast 107%
